The chains behind the UniProt entries cited, without tags or fusion partners. Residues count along the entry.
UniProt P09958, 108-714 limits assumed: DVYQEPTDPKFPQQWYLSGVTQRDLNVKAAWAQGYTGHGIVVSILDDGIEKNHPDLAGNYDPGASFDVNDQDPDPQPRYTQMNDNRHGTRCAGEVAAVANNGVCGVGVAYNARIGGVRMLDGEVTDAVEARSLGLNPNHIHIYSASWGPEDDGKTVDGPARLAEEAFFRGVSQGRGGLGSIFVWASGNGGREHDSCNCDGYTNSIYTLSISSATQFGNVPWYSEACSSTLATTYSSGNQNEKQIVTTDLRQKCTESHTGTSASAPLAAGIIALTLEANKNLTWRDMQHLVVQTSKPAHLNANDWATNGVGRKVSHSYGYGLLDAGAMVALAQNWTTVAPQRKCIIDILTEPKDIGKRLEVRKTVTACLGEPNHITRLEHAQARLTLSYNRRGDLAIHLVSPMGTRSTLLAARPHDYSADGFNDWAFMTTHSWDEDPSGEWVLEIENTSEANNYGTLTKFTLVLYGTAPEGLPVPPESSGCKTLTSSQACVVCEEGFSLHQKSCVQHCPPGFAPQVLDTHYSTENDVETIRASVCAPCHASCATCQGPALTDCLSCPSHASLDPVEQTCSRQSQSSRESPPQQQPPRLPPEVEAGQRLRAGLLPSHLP

Only a part is listed here, and it is no random draw. Activity calls are given as the source filed them. No stated cut-off is given here; in the data, active means inhibition above about 25%; inactive means the rest.
Each compound was assayed against Furin (Homo sapiens) (UniProt P09958) (assay: human furin inhibitors, primary screen, biochemical, fluorescence intensity (AID 463115)). Settings: purified furin, fluorogenic substrate cleavage, stronger effect = higher value; at 30 µM unless noted.
In the case of `CCOC(=O)C(CC)C1=NC(C)(C)Cc2ccccc21.O=[N+]([O-])c1cc([N+](=O)[O-])c(O)c([N+](=O)[O-])c1` (stereo not given), the inhibition is reported as inactive: -5.64%. In the case of `O=[N+]([O-])c1cc([N+](=O)[O-])c(Nc2nnnn2CCO)c([N+](=O)[O-])c1`, the inhibition is reported as inactive: -15.8%. With `Cc1nc2ccc3ccccc3c2s1.O=[N+]([O-])c1cc([N+](=O)[O-])c(O)c([N+](=O)[O-])c1` the inhibition was inactive: -1.47%. With `O=[N+]([O-])c1cc([N+](=O)[O-])c(-n2nnc3ccccc32)c([N+](=O)[O-])c1` the inhibition was inactive: -5.05%. `CCOP(C)(=S)SCC(=O)NC(C)C(=O)O` (stereo not given) was tested, and the inhibition was inactive: -7.73%. In the case of `CCOC(=O)c1ccc(NP(C)(=O)Oc2ccc(OC)cc2)cc1` (stereo not given), the inhibition is reported as inactive: -10.9%. `Cc1cc(C)cc(OP(C)(=O)Nc2ccc(SC(F)(F)F)cc2)c1` (stereo not given) was tested, and the inhibition was inactive: -9.22%. `CCc1ccc(OP(C)(=O)N2CCN(c3ccc([N+](=O)[O-])cc3)CC2)cc1` (stereo not given) was tested, and the inhibition was inactive: 7.02%. `CP(=O)(NC(=O)Nc1ccccc1)Oc1ccccc1` (stereo not given) was tested, and the inhibition was inactive: -17%. For `CP(=O)(Oc1ccccc1)OC(c1ccccc1)C(F)(F)F` (stereo not given), the inhibition was inactive: -23.3%. In the case of `CP(=O)(Nc1ccc(SC(F)(F)F)cc1)Oc1ccc(Cl)cc1` (stereo not given), the inhibition is reported as inactive: -11%. For `Cc1cccc(C)c1OP(C)(=O)Nc1ccc(SC(F)(F)F)cc1` (stereo not given), the inhibition was inactive: -2.59%. For `COc1ccccc1OP(C)(=O)Nc1ccccc1` (stereo not given), the inhibition was inactive: -14.5%. `CP(=O)(Nc1ccccc1Br)Oc1ccccc1` (stereo not given) was tested, and the inhibition was inactive: -1.62%. With `CP(=S)(Nn1cnnc1)Oc1ccccc1` (stereo not given) the inhibition was inactive: -12.6% [at 20 µM]. `COc1ccc(OP(C)(=O)Nc2cccc(F)c2)cc1` (stereo not given) was tested, and the inhibition was inactive: -19.9% [at 20 µM]. `COc1ccccc1OP(C)(=O)Nc1cc(Cl)ccc1C` (stereo not given) was tested, and the inhibition was inactive: -19.6%. For `Cc1cc(C)cc(OP(C)(N)=O)c1` (stereo not given), the inhibition was inactive: -25.3%. With `CCOC(=O)c1ccc(NP(C)(=O)Oc2ccccc2)cc1` (stereo not given) the inhibition was inactive: -19.2%. For `Cc1ccc(NP(C)(=O)Oc2ccccc2)c(C)c1` (stereo not given), the inhibition was inactive: -18.3%. `COc1ccccc1OP(C)(=O)Nc1ccc(C)cc1` (stereo not given) was tested, and the inhibition was inactive: -10.1%. For `Cc1cccc(C)c1OP(C)(N)=O` (stereo not given), the inhibition was inactive: -21.2%. For `CC(C)(C)c1ccc(OP(C)(=O)Nc2ccc(SC(F)(F)F)cc2)cc1` (stereo not given), the inhibition was inactive: -1.09%. With `O=[N+]([O-])c1ccc2c(c1)C=Nc1ccccc1O2` the inhibition was inactive: -14%. For `CCN(CC)CCCOC(=O)C(O)(c1ccccc1)c1ccccc1`, the inhibition was inactive: -23%.

From PubChem BioAssay AID463115 (University of Pittsburgh Molecular Library Screening Center, 2010)
